Biological target: T1, human DPP1 (Homo sapiens, UniProt P53634)
T1 construct: was first proteolytically processed into its mature form using recombinant human cathepsin L; purchased R&D Systems
Experiment: Human DPP1 Enzyme IC50 Assay
Type: biochemical
Details: activated human DPP1 enzyme, H-Gly-Arg-AMC substrate
Experimental: Recombinant human DPP1 enzyme (R&D Systems; Minneapolis, MN) was first proteolytically processed into its mature form using recombinant human cathepsin L (R&D Systems) in a buffer consisting of 20 mM citric acid pH 4.5, 150 mM NaCl, 1 mM EDTA and 10 mM DTT. Alternatively, a crude lysate of HL-60 cells (ATCC; Manassas, VA) is used as a source of human DPP1 enzyme in the assay. Lysate was prepared in 1% Triton X-100 in PBS at a concentration of 20,000 live cells per μL of lysis buffer and centrifuged at 16,000×g for 10 minutes at 4° C., after which supernatant was collected and flash-frozen in liquid nitrogen.
Test articles were applied to activated human DPP1 enzyme in Assay Buffer (25 mM MES pH 6.0, 50 mM NaCl, 5 mM DTT) in a total reaction volume of 125 μL. […] Substrate cleavage was measured for 90 minutes at 37° C., with fluorescence at Excitation/Emission 350/450 nm measured every 5 minutes. […] IC50 values for each compound were calculated via the XLFit (IDBS Version 5.3.1.3) Add-On to Microsoft Excel using the four parameter fit equation y=(A+ ((B−A)/(1+ ((C/x)^D)))), which appears as equation number 205 (4 Parameter Logistic Model or Sigmoidal Dose-Response Model) in XLFit. […]

Sequences of proteins named here, by UniProt entry; tags and fusion partners are left off. Residues count along the entry.
UniProt P53634, 395-463 limits assumed: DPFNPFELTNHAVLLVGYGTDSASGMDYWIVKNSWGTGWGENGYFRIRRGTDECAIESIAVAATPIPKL
UniProt P53634, 25-134 limits assumed: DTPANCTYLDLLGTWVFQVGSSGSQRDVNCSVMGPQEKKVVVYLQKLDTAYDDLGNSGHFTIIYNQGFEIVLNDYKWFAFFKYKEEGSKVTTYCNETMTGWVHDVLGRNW
UniProt P53634, 231-394 limits assumed: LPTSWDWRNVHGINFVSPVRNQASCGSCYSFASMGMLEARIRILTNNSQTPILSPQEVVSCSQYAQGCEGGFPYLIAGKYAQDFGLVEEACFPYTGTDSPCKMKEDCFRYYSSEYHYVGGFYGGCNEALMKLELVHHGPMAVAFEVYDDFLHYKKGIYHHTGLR

IC50: 8.7 ± 0.02 nM
Structure (SMILES): Cn1c(=O)oc2ccc(-c3ccc(C[C@@H](C#N)NC(=O)[C@@H]4CNCCCO4)c(F)c3)cc21 [INSM-204]
